Source: US20120115896A1, “ISOGENIC HUMAN CELL LINES COMPRISING MUTATED CANCER ALLELES AND PROCESS USING THE CELL LINES” (priority 2008, published 2012)

Assays:
[1] = system: hTERT-HME1 cells carrying EGFR (delE746-A750) KI; test: Drug assay: cell viability by ATP content (CellTiter-Glo, 96 h), KI versus parental cells; ΔKI pharmarray analysis
[2] = system: hTERT-HME1 DKI cells carrying PIK3CA (H1047R) and EGFR (delE746-A750); test: Drug assay: cell viability by ATP content (96 h), DKI versus parental cells; ΔKI pharmarray analysis
[3] = system: hTERT-HME1 cells carrying PIK3CA (E545K and H1047R) KI; test: Drug assay: cell viability by ATP content (96 h) and Hoechst/propidium iodide staining, KI versus parental cells; ΔKI pharmarray analysis

Cc1nc(Nc2ncc(C(=O)Nc3c(C)cccc3Cl)s2)cc(N2CCN(CCO)CC2)n1 [dasatinib, Dasatinib monohydrate]
pharmarray: differential response of EGFR mutated cells versus WT [1]: EGFR sensitive drug cluster

COc1cc2ncnc(Nc3ccc(F)c(Cl)c3)c2cc1OCCCN1CCOCC1 [gefitinib, Gefitinib]
pharmarray: differential response of EGFR mutated cells versus WT [1]: inhibit EGFR mutated cells selectively
sensitization in DKI cells containing both EGFR and PIK3CA alterations [2]: abrogates the sensitization seen with the EGFR KI alone

Sunitinib Maleate
ΔKI EGFR [1]: 0
ΔKI PIK3CA [3]: 0
ΔKI PIK3CA + EGFR [2]: 0
